From ChEMBL document CHEMBL5727881, “Pyridone amides as modulators of sodium channels” (2020)

Test: Electrophysiology Assay: Patch clamp electrophysiology was used to assess the efficacy and selectivity of sodium channel blockers in dorsal root ganglion neurons. Rat neurons were isolated from the dorsal root ganglions and maintained in culture for 2 to 10 days in the presence of NGF (50 ng/ml) (culture media consisted of NeurobasalA supplemented with B27, glutamine and antibiotics). Small diameter neurons (nociceptors, 8-12 μm in diameter) were visually identified and probed with fine tip glass electrodes connected to an amplifier (Axon Instruments). The “voltage clamp” mode was used to assess the compound's IC50 holding the cells at −60 mV. In addition, the “current clamp” mode was employed to test the efficacy of the compounds in blocking action potential generation in response to current injections. The results of these experiments contributed to the definition of the efficacy profile of the compounds.

Work on `Cc1cc(F)ccc1Oc1ccc(C(F)(F)F)cc1C(=O)Nc1cc[nH]c(=O)c1` yielded an IC50 of 99 nM.
